## Ab-14 light chain CDR variants: yeast mating affinities

Data: MIT Lincoln Laboratory AlphaSeq set, Li et al. 2023, doi:10.1038/s41467-023-39022-2, as distributed in FLAb.

All variants were tested on one target, the spike HR2 peptide PDVDLGDISGINAS (SARS-CoV-2).

The variants keep the heavy chain, the linker and the frameworks of Ab-14 (scFv order VH, three GGGGS repeats, VL).
VH: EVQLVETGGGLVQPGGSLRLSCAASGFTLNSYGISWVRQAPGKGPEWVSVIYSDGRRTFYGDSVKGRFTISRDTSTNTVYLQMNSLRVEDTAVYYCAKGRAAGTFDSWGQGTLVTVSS
VL: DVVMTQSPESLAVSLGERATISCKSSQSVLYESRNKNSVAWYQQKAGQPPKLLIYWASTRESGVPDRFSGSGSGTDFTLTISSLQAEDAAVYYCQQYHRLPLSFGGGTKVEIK

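The parent was found by panning a naive human phage display library on the peptide. Designed CDR sequences, proposed from the first random library and measured here. Group labels follow the data file (Ctrl: baseline library sampled from a position-specific scoring matrix, with some repeated check sequences; GP: Gaussian process model; HC: hill climbing; Gen: genetic algorithm; a sequence that several methods proposed may carry one label only). AlphaSeq pools MATa yeast showing the antibodies with MATalpha yeast showing the peptide. The frequency of each diploid, read from paired DNA barcodes, reflects how well the two displayed proteins bind. Read counts were normalised to the haploid input and turned into Kd by a linear fit to BCL2-family pairs of known affinity, for each replicate. The assay was run in six technical replicates.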

Substitutions are numbered in sequence along the VL above, starting at 1 (not Kabat). Variants here have at most six changes. Numbers give log10(Kd / nM), so 0 is 1 nM and 3 is 1 µM. Smaller is tighter. Where no diploid with the target was found in that replicate, the entry reads "nd": below detection, most likely a poor binder, though not proof of it. The authors' rule: three or more of the six replicates give a measured affinity, fewer mean a poor binder. As a blank, each scFv also met three strains without target: over all light chain designs, 4% of these pairings were detected, typically at 2.64 and seldom below 1.59. The range of this assay differs from that of the first round, and the authors advise against merging the two.

Variant S25F Q27P N35T W56E [GP_HC] showed -0.08, -0.20, -0.26, -0.48, -0.30, 0.09. For K36T T59E Q96D R99D [Ctrl], the assay gave nd, 2.26, nd, 1.73, 2.80, 3.66. Variant S25M W56D E61S [GP_HC] gave -0.12, -0.22, -0.27, -0.37, -0.27, -0.24. Variant S25Q W56D R99W [GP_HC] gave 0.91, 0.70, 0.48, 0.54, 1.00, 0.83. Variant S25Y V29Y L30H W56G [GP_HC] gave 0.67, 0.53, 0.44, 0.79, 0.48, 0.47. With S25L S26V V29W W56N T59Q E61L [GP_Gen] the result was 0.33, 0.13, 0.46, 0.10, 0.10, 0.26. Variant S25F V29W S38A W56N T59Q [GP_Gen] showed -0.08, -0.21, -0.25, -0.30, -0.37, -0.10. Variant S25L V29E L30M W56N [GP_Gen] showed -0.33, -0.63, -0.35, -0.63, -0.34, -0.30. With S25L S26Y S38A W56N [GP_Gen] the result was -0.24, -0.37, -0.31, -0.17, -0.21, -0.15.

With S25F V29W W56G T59F [GP_HC] the result was -0.05, -0.07, -0.25, -0.28, 0.38, 0.07. For S25L S26E V29W W56H [GP_Gen], the assay gave 0.01, -0.24, -0.20, -0.56, -0.35, -0.22. For S25F W56E Q96D [GP_Gen], the assay gave 0.19, 0.12, 0.24, -0.19, -0.05, 0.15. Variant S25L S26M L30P W56N [GP_Gen] showed 0.02, -0.08, -0.26, -0.24, -0.29, -0.17. With S25L Y31A N37G H98I [Ctrl] the result was 0.96, 1.41, 1.36, 1.27, 0.76, 0.84. For S26Q S28G N35V W56G [GP_HC], the assay gave -0.04, -0.14, -0.37, -0.23, -0.28, -0.17. Variant V29G Y31L [Ctrl] gave 2.02, 1.30, 1.74, 1.64, 1.87, 1.47. For S25L Q27W K36L [Ctrl], the assay gave 2.17, 1.28, 2.01, 1.40, 1.23, 1.50. Variant S25L Y31N W56D L100M [GP_HC] showed 0.10, -0.10, -0.11, -0.18, -0.08, 0.20.

For S25L S26Q W56N T59Q S62V [GP_Gen], the assay gave 0.50, 0.38, 0.18, 0.52, -0.01, 0.54. Variant S25T S26P S28G W56N T59V [GP_HC] gave 0.22, 0.18, 0.18, -0.01, 0.22, 0.27. Variant Y31L W56Y H98M [Ctrl] gave 0.45, 0.46, 0.61, 0.35, 0.53, 0.77. Variant S25L N35V Y97V [Ctrl] gave 1.70, nd, nd, nd, nd, nd. For S25V V29W W56D [GP_Gen], the assay gave -0.06, -0.27, -0.31, -0.51, -0.21, -0.23. With S26V N35G S38N [Ctrl] the result was nd, nd, nd, nd, nd, nd. With S25L V29E K36C W56G [Ctrl] the result was 0.11, 0.08, -0.02, -0.13, -0.01, 0.11. For K36N Q95C R99G [Ctrl], the assay gave 2.28, 3.01, 2.62, nd, 2.98, 2.60. With Y31T S58N S62T H98F [Ctrl] the result was nd, nd, nd, nd, nd, nd.

Variant S26D Q27P W56K R99S [Ctrl] showed 0.64, 0.45, 0.47, 0.61, 0.86, 0.95. For Q27I V29Y W56H [GP_HC], the assay gave 1.25, 1.32, 0.76, 0.58, 0.78, 0.77. With Y31A S33D R34Y W56E E61S [Ctrl] the result was 1.17, 0.57, 0.35, 0.41, 0.21, 0.29. Variant R34V E61R [Ctrl] gave nd, 2.26, nd, 1.58, nd, nd.

Repeated from above, the 2 best binders with a signal in all replicates:

S25L V29E L30M W56N [GP_Gen]: -0.33, -0.63, -0.35, -0.63, -0.34, -0.30.
S25V V29W W56D [GP_Gen]: -0.06, -0.27, -0.31, -0.51, -0.21, -0.23.